This passage reports IC50 results from patent publication US8129388B2, “Therapeutic agents useful for treating pain” (Purde Pharma L.P., priority 2003, dated 2012).

Chains of the proteins cited; added tags and fusions are not shown.
UniProt Q8NER1, whole entry: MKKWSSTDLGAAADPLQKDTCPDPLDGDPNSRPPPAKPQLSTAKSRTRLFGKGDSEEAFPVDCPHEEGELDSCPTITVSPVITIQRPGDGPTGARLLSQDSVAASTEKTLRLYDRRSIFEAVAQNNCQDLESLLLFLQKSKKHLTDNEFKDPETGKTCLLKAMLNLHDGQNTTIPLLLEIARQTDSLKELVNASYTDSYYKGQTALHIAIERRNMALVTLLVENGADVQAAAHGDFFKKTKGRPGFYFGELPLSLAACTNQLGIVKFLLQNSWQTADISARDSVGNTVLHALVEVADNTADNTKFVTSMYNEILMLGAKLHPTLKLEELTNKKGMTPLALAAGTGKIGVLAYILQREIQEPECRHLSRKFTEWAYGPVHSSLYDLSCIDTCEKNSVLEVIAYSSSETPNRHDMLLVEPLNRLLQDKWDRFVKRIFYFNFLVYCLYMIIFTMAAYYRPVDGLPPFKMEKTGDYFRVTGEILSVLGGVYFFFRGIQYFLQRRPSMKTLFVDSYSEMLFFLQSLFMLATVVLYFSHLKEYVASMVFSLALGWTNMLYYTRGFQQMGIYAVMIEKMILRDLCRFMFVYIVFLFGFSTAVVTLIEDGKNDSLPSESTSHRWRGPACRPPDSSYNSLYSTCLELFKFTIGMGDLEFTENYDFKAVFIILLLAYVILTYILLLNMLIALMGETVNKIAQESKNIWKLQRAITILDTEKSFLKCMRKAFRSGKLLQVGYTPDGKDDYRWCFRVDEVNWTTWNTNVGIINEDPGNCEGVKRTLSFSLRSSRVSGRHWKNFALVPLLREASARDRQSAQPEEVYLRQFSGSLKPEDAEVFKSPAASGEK

The term IC50 denotes the concentration needed to halve the response being measured.

For test [1], the target named is T1, human VR1 (Homo sapiens, UniProt Q8NER1).
T1 construct: expressed in transfected cells
Put plainly: pH-based assay of VR1 inhibition (Fluo-4 calcium, FLIPR). It is filed as cell-based. Here is the method: (§1) Human VR1 Cloning: Human spinal cord RNA (commercially available from Clontech, Palo Alto, Calif.) was used. Reverse transcription was conducted on 1.0 μg total RNA using Thermoscript Reverse Transcriptase (commercially available from Invitrogen) and oligo dT primers as detailed in its product description. Reverse transcription reactions were incubated at 55° C. for 1 h, heat-inactivated at 85° C. for 5 min, and RNase H-treated at 37° C. for 20 min.
(§2) Human VR1 cDNA sequence was obtained by comparison of the human genomic sequence, prior to annotation, to the published rat sequence. Intron sequences were removed and flanking exonic sequences were joined to generate the hypothetical human cDNA. Primers flanking the coding region of human VR1 were designed as follows: forward primer, […]; and reverse primer, […]. […]
(§3) Generation of Inducible Cell Lines: Unless noted otherwise, cell culture reagents were purchased from Life Technologies of Rockville, Md. […] On the day of assay, cells were loaded with Fluo-4 (a calcium-sensitive dye that is commercially available from Molecular Probes) and CAP-mediated calcium influx was measured using a FLIPR as described below. […]

Test [2] deals with T1, human VR1. Put plainly: Capsaicin-based assay of VR1 inhibition (Fluo-4 calcium, FLIPR). Format: cell-based. The protocol: as §1, §2, §3

Turning to `Cc1cccnc1-c1ccc(C(=O)Nc2ccc(C(C)(C)C)cc2)cc1` [Compound E35], the IC50 is 11.2 ± 5.5 nM on human VR1 [1] and 128 ± 26 nM on human VR1 [2].
